The nature of data set [1]: Various stabilizers: degradation of H2O2 at pH 4, 5.5 and 7. As to conditions: with stabilizer, 25 mM citric acid, approx. 1% H2O2.

Where two headings read alike, the source gives them in different places.

“Sodium salt of Ethylenediaminetetra(methylenephosphonic)acid [Sodium salt of EDATMP]”: the “Calculated degraded amount of H2O2 (%) after 2 years storage at 23° C.” value (“Calculated degraded amount of H2O2 (%)” below) by setting is: (0 mM citrate, pH 4, DETAPMP 500 mg/L, sodium salt of DETAPMP 1000 mg/L, sodium salt of EDATMP 500 mg/L) 15.4%; (0 mM citrate, pH 4, sodium salt of EDATMP 1000 mg/L) 15.4%; (0 mM citrate, pH 5.5, DETAPMP 500 mg/L, sodium salt of DETAPMP 1000 mg/L, sodium salt of EDATMP 500 mg/L) 18.2%; (0 mM citrate, pH 5.5, sodium salt of EDATMP 1000 mg/L) 21.0%; (0 mM citrate, pH 7, DETAPMP 500 mg/L, sodium salt of DETAPMP 1000 mg/L, sodium salt of EDATMP 500 mg/L) 35.0%; (0 mM citrate, pH 7, sodium salt of EDATMP 1000 mg/L) 25.2%. In addition, the “Calculated degraded amount of H2O2 (%)” value is 19.6% (10 mM citrate, pH 4, DETAPMP 500 mg/L, sodium salt of DETAPMP 1000 mg/L, sodium salt of EDATMP 500 mg/L); 37.8% (10 mM citrate, pH 4, sodium salt of EDATMP 1000 mg/L); 53.2% (10 mM citrate, pH 5.5, DETAPMP 500 mg/L, sodium salt of DETAPMP 1000 mg/L, sodium salt of EDATMP 500 mg/L); 30.8% (10 mM citrate, pH 5.5, sodium salt of EDATMP 1000 mg/L); 86.8% (10 mM citrate, pH 7, DETAPMP 500 mg/L, sodium salt of DETAPMP 1000 mg/L, sodium salt of EDATMP 500 mg/L); 43.4% (10 mM citrate, pH 7, sodium salt of EDATMP 1000 mg/L). Besides, the “Calculated degraded amount of H2O2 (%)” value (25 mM citrate, pH 4, DETAPMP 500 mg/L, sodium salt of DETAPMP 1000 mg/L, sodium salt of EDATMP 500 mg/L) is recorded as 50.4%; the “Calculated degraded amount of H2O2 (%)” value (25 mM citrate, pH 4, sodium salt of EDATMP 1000 mg/L) was 50.4%; the “Calculated degraded amount of H2O2 (%)” value (25 mM citrate, pH 5.5, DETAPMP 500 mg/L, sodium salt of DETAPMP 1000 mg/L, sodium salt of EDATMP 500 mg/L) is on record as 103.6%; the “Calculated degraded amount of H2O2 (%)” value (25 mM citrate, pH 5.5, sodium salt of EDATMP 1000 mg/L) was 39.2%; the “Calculated degraded amount of H2O2 (%)” value (25 mM citrate, pH 7, DETAPMP 500 mg/L, sodium salt of DETAPMP 1000 mg/L, sodium salt of EDATMP 500 mg/L) is 137.1%; the “Calculated degraded amount of H2O2 (%)” value (25 mM citrate, pH 7, sodium salt of EDATMP 1000 mg/L) is given as 158.1%. For the same substance, the results for the “calculated amount of degraded H2O2 after 2 years of storage at 23° C.” value in data set [1] (pH 4), in data set [1] (pH 5.5) and in data set [1] (pH 7) were 18.3%, 14.5% and 25.8%, respectively.

Values taken from patent US9028858B2 (Coloplast A/S, priority 2003, dated 2015).
